UUG fidelity: yeast start codon fidelity modulation; AID 602363; activity score, % at 18.7 µM; S. cerevisiae UUG-firefly luciferase reporter, luminescence/redox ratio; 0.13% of 350,000 active;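 active means replicate mean at a twofold rise or more, about +100% in these data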;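 further: firefly luciferase made from a UUG start codon reports start codon fidelity; reporter light over untreated wells divided by growth signal over untreated wells; some hits fall short of that in this replicate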
Statin myotox sup: suppressors of simvastatin-induced myotoxicity in C2C12 myotubes | AID 602340 | ATP luminescence, 48 h; scaled: DMSO 0, geranylgeraniol control 100 | actives 0.78% (n = 330,000) | rescue of ATP level, % at 7.49 µM;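 active means mean ATP rescue above about 67%, or every replicate alone reaching that limit, limit read from the data, passing the limit was not always enough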;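 further: myotubes were challenged with 10 µM simvastatin during compound exposure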
Rtt109 Vps75: inhibitors of Candida albicans Rtt109/Vps75 histone acetyltransferase; Q5AAJ8; purified Rtt109/Vps75, ThioGlo CoA-SH fluorescence, 4 h; inhibition, % at 34.9 µM; actives 0.16% (n = 330,000);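 active means inhibition of at least 50% in every replicate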
CDK5 p35 inh: CDK5/p35 (human) kinase inhibition. Recombinant CDK5/p35, ADP-Glo luminescence, 60 min. inhibition, % at 10 µM. actives 0.01% (n = 330,000). AID 488839. Q00535+Q15078;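 active means highest replicate inhibition of at least 50% and at least 75% of replicates reaching 50%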;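 further: plate controls were DMSO neutral control for no effect and GW8510 at 10 µM for full effect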
Cneo AK release: causes C. neoformans cell lysis | adenylate kinase release luminescence, 4 h; normalised: neutral wells 0, clomiphene wells 100 | lysis activity, % at 15 µM | actives 0.2% (n = 360,000) | AID 651654;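 active means mean lysis activity across replicates of at least 80%, whatever share of replicates individually reach that level; inactive means mean lysis activity below 80%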
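read-out = cell lysis signal | test system = log-phase Cryptococcus neoformans yeast cells | input = cells at 5 × 10^6 per mL | medium = fresh YPD growth medium | signal = luminescent adenylate kinase detection reagent | timing = 4 h at 37 °C static, read 1 h later | dosing = single dose | controls = Clomiphene as positive lysis control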
Starred values were filed as active, the others as inactive. Only some compounds are listed: those with a hit (about 1% of all), similar ones and a draw of the others.

Screening N#C[C@H]1[C@@H](c2ccccc2)[C@@H](CO)N1C(=O)Cc1ccccc1 returned UUG fidelity 12.4, Statin myotox sup 8.7 and Cneo AK release 101.3*.
For N#C[C@H]1[C@H](c2ccc(-c3ccc(F)cc3)cc2)[C@@H](CO)N1C(=O)Cc1ccccc1 the results were UUG fidelity -7.3, Statin myotox sup 69.7* and Cneo AK release 17.8.
For COCC(=O)N1[C@@H](C#N)[C@@H](c2ccc(C#Cc3ccccc3F)cc2)[C@@H]1CO the results were UUG fidelity 25.0, Statin myotox sup -14.4 and Cneo AK release -0.2.
Screening C[C@@H]1CN([C@@H](C)CO)C(=O)c2cc(NC(=O)CCCN(C)C)ccc2O[C@@H](C)CCCCO[C@H]1CN(C)S(=O)(=O)c1cccs1 returned UUG fidelity 1.9 and Cneo AK release 1.5.
`CC(C)CC#Cc1ccc2c(c1)O[C@H](CN(C)C(=O)CN(C)C)[C@@H](C)CN([C@@H](C)CO)S2(=O)=O` gave UUG fidelity 8.4, Statin myotox sup -19.0 and Cneo AK release 2.3.
`CC(C)NC(=O)N1[C@H](C#N)[C@@H](c2ccc(-c3ccc(F)cc3)cc2)[C@@H]1CO` gave Statin myotox sup 76.4* and Cneo AK release -3.4.
Screening CCN1[C@@H]2c3ccc(-c4ccccc4)c(=O)n3C[C@@H]2[C@@H](CO)[C@@H]1C(=O)NCc1ccccc1 returned UUG fidelity 3.5, Statin myotox sup 0.2 and Cneo AK release -1.7.
Screening CS(=O)(=O)N(Cc1ccc(F)cc1)Cc1nc2ccccc2c(=O)[nH]1 returned UUG fidelity -10.7, Statin myotox sup 98.8*, Rtt109 Vps75 -6.0, CDK5 p35 inh 1.0 and Cneo AK release 1.8.
`COc1cc2c(c(O)c1OC)-c1c(cc(OC)c(OC)c1OC)C[C@@H](C)[C@@H](C)C2` gave UUG fidelity -6.4, Statin myotox sup 12.8, Rtt109 Vps75 -4.3, CDK5 p35 inh -1.0 and Cneo AK release -2.0.
`COc1cc2c(c(O)c1OC)C(=O)C(OC)CCC2` (configuration not stated) gave UUG fidelity -15.6, Statin myotox sup 89.3*, Rtt109 Vps75 5.4, CDK5 p35 inh 0.1 and Cneo AK release 0.8.
Screening C[C@@H]1CN([C@@H](C)CO)C(=O)Cc2cc(N(C)C)ccc2O[C@@H]1CN(C)Cc1ccncc1 returned UUG fidelity -6.0, Statin myotox sup 19.5 and Cneo AK release -2.5.
`O=C(CCCc1nc(-c2ccccc2)no1)Nc1cccnc1` gave UUG fidelity -17.5, Statin myotox sup 86.4*, Rtt109 Vps75 -0.7, CDK5 p35 inh 2.2 and Cneo AK release 2.3.
For Cc1ccc(S(=O)(=O)N(C)C[C@H]2Oc3c(NC(=O)Nc4ccccc4)cccc3C(=O)N([C@H](C)CO)C[C@H]2C)cc1 the results were UUG fidelity 4.1, Statin myotox sup 116.7* and Cneo AK release 2.3.
Screening C[C@@H]1CN([C@@H](C)CO)C(=O)c2cccc(NC(=O)Nc3ccccc3)c2O[C@@H]1CN(C)S(=O)(=O)c1ccc(F)cc1 returned UUG fidelity -1.7, Statin myotox sup 74.2* and Cneo AK release -3.3.
Screening Cc1ccc(S(=O)(=O)N(C)C[C@@H]2Oc3c(NC(=O)Nc4ccccc4)cccc3C(=O)N([C@@H](C)CO)C[C@@H]2C)cc1 returned UUG fidelity -0.8, Statin myotox sup -9.1 and Cneo AK release -7.9.

Molecules from the list above that have an aryl methoxy group, in the order listed:
`COc1cc2c(c(O)c1OC)-c1c(cc(OC)c(OC)c1OC)C[C@@H](C)[C@@H](C)C2` gave UUG fidelity -6.4, Statin myotox sup 12.8, Rtt109 Vps75 -4.3, CDK5 p35 inh -1.0 and Cneo AK release -2.0.
`COc1cc2c(c(O)c1OC)C(=O)C(OC)CCC2` (configuration not stated) gave UUG fidelity -15.6, Statin myotox sup 89.3*, Rtt109 Vps75 5.4, CDK5 p35 inh 0.1 and Cneo AK release 0.8.

(cont.)
Screening C[C@@H]1CN([C@H](C)CO)C(=O)c2cccc(NC(=O)Nc3ccccc3)c2O[C@@H]1CN(C)S(=O)(=O)c1ccccc1 returned UUG fidelity 9.0, Statin myotox sup 65.3* and Cneo AK release 1.5.
Cc1ccc(S(=O)(=O)N(C)C[C@H]2Oc3c(NC(=O)Nc4ccccc4)cccc3C(=O)N([C@@H](C)CO)C[C@H]2C)cc1 was read as UUG fidelity -9.4, Statin myotox sup 122.7* and Cneo AK release -4.5.
Cc1noc(C)c1NC(=O)Nc1ccc2c(c1)CC(=O)N([C@@H](C)CO)C[C@H](C)[C@H](CN(C)Cc1ccc(-c3ccccc3)cc1)O2 was read as Statin myotox sup -4.3.
`Cc1cc(C(=O)Nc2cccc3c2O[C@H](CN(C)S(=O)(=O)c2ccccc2)[C@H](C)CN([C@H](C)CO)C3=O)n(C)n1` gave UUG fidelity 24.5, Statin myotox sup -5.9 and Cneo AK release 90.0*.
`Cc1cc(C(=O)Nc2cccc3c2O[C@@H](CN(C)S(=O)(=O)c2ccccc2)[C@H](C)CN([C@@H](C)CO)C3=O)n(C)n1` gave UUG fidelity -3.0, Statin myotox sup 6.5, Rtt109 Vps75 5.3, CDK5 p35 inh -3.9 and Cneo AK release -2.9.
For C[C@@H]1CN([C@H](C)CO)C(=O)c2cc(C#CC3CCCC3)cnc2O[C@H]1CN(C)C(=O)C1CCCCC1 the results were UUG fidelity 10.4, Statin myotox sup -44.8 and Cneo AK release -0.5.
CCOc1ccccc1CN1CCNC(=O)C1CC(=O)N(C)CCc1ccccn1 (configuration not stated) was read as UUG fidelity -9.3, Statin myotox sup 118.4*, Rtt109 Vps75 4.7, CDK5 p35 inh -0.2 and Cneo AK release 2.2.
CC(NC(=O)C1CC=CCC1C(=O)O)C1CC2CCC1C2 (configuration not stated) was read as UUG fidelity -7.7, Statin myotox sup 97.7*, Rtt109 Vps75 3.2, CDK5 p35 inh -0.7 and Cneo AK release 1.9.
CC(C)NC(=O)N(C)C[C@H]1Oc2ncc(C#Cc3ccncc3)cc2C(=O)N([C@H](C)CO)C[C@@H]1C was read as UUG fidelity 2.9, Statin myotox sup 22.5 and Cneo AK release -0.1.
For O=C(Nc1cccc(C(F)(F)F)c1)C1CCN(S(=O)(=O)c2cnc[nH]2)CC1 the results were UUG fidelity -9.4, Statin myotox sup 106.9*, Rtt109 Vps75 -9.8, CDK5 p35 inh -1.1 and Cneo AK release -0.5.
O=C(Nc1ccncc1)C1CCN(S(=O)(=O)c2cccc(C(F)(F)F)c2)CC1 was read as UUG fidelity 13.4, Statin myotox sup 8.1, Rtt109 Vps75 6.6, CDK5 p35 inh 1.4 and Cneo AK release 2.1.
C[C@@H]1CN([C@@H](C)CO)C(=O)c2cc(NC(=O)CCCN(C)C)ccc2O[C@@H]1CN(C)Cc1ccc(C(F)(F)F)cc1 was read as UUG fidelity -0.6, Statin myotox sup -2.5 and Cneo AK release 0.6.
`CCOC(=O)c1ccc(NC(=S)N2CCCC(C(=O)OCC)C2)cc1` (configuration not stated) gave UUG fidelity -20.6, Statin myotox sup 90.0*, Rtt109 Vps75 3.6, CDK5 p35 inh 0.4 and Cneo AK release -2.8.
Screening CCOC(=O)C1CCCN(C(=S)Nc2ccc(F)cc2)C1 (configuration not stated) returned Rtt109 Vps75 4.4 and CDK5 p35 inh 0.0.
C[C@H](CO)N1C[C@H](C)[C@@H](CN(C)S(=O)(=O)c2ccc(Cl)cc2)Oc2ccc(NS(=O)(=O)c3cn(C)cn3)cc2CC1=O was read as UUG fidelity 11.0, Statin myotox sup 8.1 and Cneo AK release 47.6.

Ordered by length of the SMILES (ascending): some entries from above
CC(NC(=O)C1CC=CCC1C(=O)O)C1CC2CCC1C2 (configuration not stated) was read as UUG fidelity -7.7, Statin myotox sup 97.7*, Rtt109 Vps75 3.2, CDK5 p35 inh -0.7 and Cneo AK release 1.9.
CCOc1ccccc1CN1CCNC(=O)C1CC(=O)N(C)CCc1ccccn1 (configuration not stated) was read as UUG fidelity -9.3, Statin myotox sup 118.4*, Rtt109 Vps75 4.7, CDK5 p35 inh -0.2 and Cneo AK release 2.2.
Cc1ccc(S(=O)(=O)N(C)C[C@H]2Oc3c(NC(=O)Nc4ccccc4)cccc3C(=O)N([C@@H](C)CO)C[C@H]2C)cc1 was read as UUG fidelity -9.4, Statin myotox sup 122.7* and Cneo AK release -4.5.
